Literature values in paper PMC1523333.

Molecular target: actin filament barbed end (Oryctolagus cuniculus) (UniProt P68135)

Kd: 1 nM
Substance: Capping protein (CapZ) (from UniProt P13127)
